# From patent US9260375B2, “Metallo-β-lactamase inhibitors” (priority 2005, dated 2016)
# Molecular target: T1, VIM-2 (UniProt Q5U7L7)
# T1 construct: His tag (C); made in house; host or cells: E. coli DH5α
# Assay: biochemical
# Experimental: The PCR product was integrated into pTrcHis2 TOPO vector (Invitrogen), and then introduced into E. coli DH5α (TOYOBO) for culture under the induction of 0.5 mM Isopropyl-β-D-(−)-thiogalactopyranoside (Wako) at 37° C. for 3 h to express IMP-1. After recovering the bacterial cells, the periplasmic fraction was extracted by ocmotic shock with sucrose to refine the IMP-1 by Ni-NTA Slurry (QIAGEN) with the His tag at the C-terminus.
# In order to determine the inhibitory activity of metallo-β-lactamase, a 50 mM HEPES (pH 7.5) buffer (referred to hereinafter as “buffer”) was used, and nitrocefin (Oxoid) with the final concentration of 100 μM was used as a substrate. A test drug (material to be tested: compound having an Example Number shown in Table 2) was added to each well of a 96-well plate, into which nitrocefin was added and mixed. Then, IMP-1 or VIM-2 was added to each well in the final concentration of 1 nM or 1.5 nM, respectively to react the mixture at room temperature for 20 min. In this case, ZnSO4 was added in the final concentration of 100 μM in order to exclude the inhibitory effect by the chelate effect. Enzyme inhibiting activity was determined by measuring the hydrolysis activity of nitrocefin at a wave length of 490 nm with ARVOsx microplate reader (Wallac).
structure (smiles),measurement,value
"CC/C(C(=O)O)=C(\CC)C(=O)O [Example 4, 2,3-diethylmaleic acid disodium]",IC50,13 µM
